{"source": "BindingDB's records for doi:10.1021/jm101144f", "about": "(Dana-Farber Cancer Institute, 2010)", "molecular_target": "Serine/threonine-protein kinase mTOR (Mus musculus, UniProt Q9JLN9)", "note": "pIC50: −log10 of the molar value.", "data": [{"compound": "CN(C)CCn1c(=O)ccc2cnc3ccc(-c4cnc5ccccc5c4)cc3c21", "note": "[1-(2-(dimethylamino)ethyl)-9-(quinolin-3-yl)benzo[h][1,6]naphthyridin-2(1H)-one]", "values": [{"measurement": "pIC50", "value": "< 6.52"}]}]}
